ChEMBL document CHEMBL4270513, “Replacement of Arg with Nle and modified D-Phe in the core sequence of MSHs, Ac-His-D-Phe-Arg-Trp-NH2, leads to hMC1R selectivity and pigmentation” (Eur J Med Chem, 2018)
pEC50, pIC50: −log10 of the molar value.

Chains of the proteins cited; added tags and fusions are not shown.
UniProt P32245, whole entry: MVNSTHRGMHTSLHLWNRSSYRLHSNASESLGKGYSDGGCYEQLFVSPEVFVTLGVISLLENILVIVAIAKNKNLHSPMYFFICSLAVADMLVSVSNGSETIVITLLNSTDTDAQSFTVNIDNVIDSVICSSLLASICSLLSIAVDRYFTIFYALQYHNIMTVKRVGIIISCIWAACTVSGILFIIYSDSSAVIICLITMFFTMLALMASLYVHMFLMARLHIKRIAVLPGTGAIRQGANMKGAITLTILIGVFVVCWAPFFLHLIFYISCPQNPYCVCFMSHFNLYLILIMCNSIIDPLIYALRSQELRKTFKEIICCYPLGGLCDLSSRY

Key:
[1] = molecular target: T1, Melanocortin receptor 4 (Homo sapiens, UniProt P32245); experiment: Displacement of [125I]-[Nle4,d-Phe7]-alpha-MSH from human MC4R expressed in HEK293 cells after 40 mins by gamma counting analysis; assay type: cell-based
[2] = molecular target: T1, Melanocortin receptor 4; experiment: Agonist activity at human MC4R expressed in HEK293 cells after 3 mins by cAMP assay; assay type: functional, cell-based

CC(=O)N[C@@H](Cc1cnc[nH]1)C(=O)N[C@H](Cc1ccccc1)C(=O)N[C@@H](CCCN=C(N)N)C(=O)N[C@@H](Cc1c[nH]c2ccccc12)C(N)=O
pIC50 [1]: 6.44
pEC50 [2]: 6.26
